# Measured affinities in a library of Ab-14 light chain variants

Antigen: PDVDLGDISGINAS, a 14-residue peptide of the SARS-CoV-2 spike HR2 region.

Parent: Ab-14, a human scFv built as VH, three GGGGS repeats, VL. Only the CDRs of the light chain vary.
VH: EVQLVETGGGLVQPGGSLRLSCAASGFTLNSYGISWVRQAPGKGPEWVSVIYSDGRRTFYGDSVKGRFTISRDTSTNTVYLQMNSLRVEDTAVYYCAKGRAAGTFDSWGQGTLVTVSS
VL: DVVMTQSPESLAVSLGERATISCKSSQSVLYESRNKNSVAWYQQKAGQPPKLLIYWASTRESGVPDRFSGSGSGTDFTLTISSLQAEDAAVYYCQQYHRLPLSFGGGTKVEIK

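The starting antibody came from a phage panning campaign against this peptide. Designed CDR sequences, proposed from the first random library and measured here. Several design methods are mixed in this list. Affinity was read by AlphaSeq, a pooled yeast mating assay with surface-displayed partners. Pairs that bind mate more often; barcode pairs of the diploids are counted by sequencing. Scores were corrected for input abundance and mapped to Kd with protein pairs of known affinity run in the same pool. Each pool was mated in six replicate cultures.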

The parent's light chain CDRs are KSSQSVLYESRNKNSVA, WASTRES, QQYHRLPLS; each variant's own CDRs replace them letter for letter.
Affinities are written as log10 Kd with Kd in nM; a lower number is a better binder.
A pair that was not seen in that replicate is written "n.d."; this usually means weak binding, but a binder can also be missed.
The authors averaged sequences with at least three values out of six and counted those with two or fewer as poor binders.
Of ten entries with the parent sequence, four were seen in most replicates (averages 0.34 to 2.37), three in one and three in none, so single entries are noisy.
Values of this round are not directly comparable with the first-round values of the same sequences.
Where one sequence has several entries in the source, the replicates are listed entry by entry, parted by semicolons.
Empty control strains, which show no peptide, gave a signal in 4% of pairings with all light chain designs; the median was 2.64 and 95% of these signals were weaker than 1.59. No background was subtracted. The control count says in how many pairings with the empty strains this scFv gave a signal, with their mean in brackets.

CDR-L1	CDR-L2	CDR-L3	log10 Kd, replicates	control signals
KLSQSELMESRNKNSVA	SASTRES	QQYHRLPLS	-0.10 -0.20 -0.21 -0.22 -0.27 -0.18	6 of 18 (3.21)
KLSQSVLYESRNKNSVA	EASTREW	QQYHRLPLS	0.09 -0.05 -0.17 -0.20 -0.19 0.04	0 of 18
KITQMVNFESTHINAVA	QMSTREE	QQYFRLPLS	0.69 1.29 0.77 1.99 0.87 0.68	1 of 18 (2.83)
SLEPFEYQIMKDLNNIA	NTQTRAN	QQYMRLPIM	0.34 0.22 0.30 0.11 0.46 0.44	1 of 18 (2.10)
KLSQSWLYESRNKNAVA	NASTRMS	QQYHRLPLS	-0.35 0.16 -0.04 0.00 0.10 0.21	0 of 18
KLLQSVLLESRNDNSVA	NASTREL	QQYHRLPLS	-0.28 -0.22 -0.53 -0.51 -0.46 -0.27	1 of 18 (2.81)
KFSQSVLYESRTFNSVA	NASTRES	QQYHRLPLS	0.02 0.19 0.11 -0.16 0.17 0.33	1 of 18 (2.15)
KLMQSMLYESRNKNSVA	NASQRLS	QQYHRLPLS	0.10 -0.10 -0.07 -0.41 -0.07 0.03	0 of 18
KLVGVDDNDNNPMSAIA	DVNTLDN	QQYHRLPLD	3.08 2.10 2.72 2.26 3.58 2.80	0 of 18
KSSQSWLYESRNKNSVA	GASTRES	QQYHRLPLS	0.04 -0.12 -0.08 0.05 -0.29 0.01; -0.18 -0.24 -0.31 -0.35 -0.53 0.06	2 of 36 (2.42)
IVSQLMLWGYHQKNSIA	EAETRLN	QQYERLPLF	n.d. 2.11 n.d. n.d. 2.66 n.d.	1 of 18 (1.69)
MISNVMNTLTRLGNNVA	DLAERED	QQYFRLPLS	1.56 3.19 2.24 0.94 1.68 2.79	0 of 18
KLSQSVLYESRNKNSVA	NASTRES	QQYHRLPLT	-0.26 -0.30 -0.48 -0.46 -0.37 -0.23	0 of 18
KLRMLTVTGGYFKNSVA	QAETREN	QSYHRLPLA	1.82 1.19 n.d. 2.08 1.48 1.02	2 of 18 (3.02)
KVSEFMKGLTMRKDSIA	DNTTREN	QQYDRLPLS	n.d. 1.82 1.52 n.d. 2.33 n.d.	0 of 18
KISQLVNFLGKNKYSVA	QMSTRED	QQYDRLPLS	0.78 0.84 0.59 0.87 0.75 1.14	0 of 18
MSSQSVLFESRNKNSVA	WASTRES	QQYRVLPLS	n.d. n.d. n.d. n.d. n.d. n.d.	0 of 18
TLYGLSNSMSINKDSVA	EMTTREE	QQYDRLPLV	n.d. n.d. n.d. n.d. n.d. n.d.	0 of 18
KLSQITGHMSMSKNNVA	EMETREN	QQYDRLPLS	2.52 1.19 1.54 1.12 0.75 1.47	0 of 18
KLSQSQLYESRNKNSVA	NASTRES	QQYHRLPLS	-0.18 -0.17 -0.20 -0.29 -0.36 -0.05	3 of 18 (2.48)
KSSQSVLQESENKNSVA	WASTRES	QQYHRLPLS	1.49 1.05 1.24 0.66 0.48 0.86	1 of 18 (2.67)
IISQVDAYESRNKNSIA	DQSTRGN	QQYDRLPLS	1.52 1.74 0.87 0.39 0.86 0.58	0 of 18
HSSPSTLYESRNKNSVA	NASTRES	QQYHRLPLS	0.12 0.29 0.44 0.37 0.53 0.27	2 of 18 (3.18)
KQQFSGMGGSRNKNSVA	KASTRES	QQYHRLPLS	2.01 1.34 1.48 1.80 1.18 1.48	0 of 18
KSSQSDLYESRNGNSVA	NASTRMD	QQYHRLPLS	0.39 -0.08 -0.09 0.05 -0.03 0.00	0 of 18
TLYGLTNSMSKNKDSVA	EMSTREA	QQYDRLPLV	0.80 0.59 0.84 0.52 0.65 1.00	1 of 18 (2.89)
SLSQSVLYESRTKNSVA	NASTRES	QQYHRLPLS	0.13 -0.10 -0.05 -0.22 0.26 0.09	0 of 18
KLEFSVDYESRNKNAVA	NASTREK	QQYHRLPLS	-0.32 -0.16 -0.38 -0.53 -0.21 -0.05	0 of 18
KFSQSVLYESRNKNNVA	NASTRES	QQYHRLPLS	-0.17 -0.28 -0.11 -0.11 -0.29 -0.10	0 of 18
KLSMSMLYESRNKNSVA	NASQRES	QQYHRLPLS	0.23 0.07 -0.04 0.06 -0.05 0.19	1 of 18 (2.17)
MIYGAQRELGRAANSIA	DNVTRYQ	QQYERLPLS	n.d. n.d. n.d. 3.90 2.98 n.d.	0 of 18
KLSQVYGYESTNSNSVA	DASTRED	QQYHRLPLS	-0.10 -0.05 -0.34 -0.42 -0.25 -0.05	1 of 18 (2.56)
KLQQSVPYESRNKNSVA	NASTRES	QDYHRLPLS	0.56 0.41 0.26 0.17 0.22 0.68	0 of 18
KLSQSVPYESRNKNSVA	NASTRMS	QQYHRLPLS	0.04 0.11 0.13 -0.30 0.02 0.18	0 of 18

Source: Li et al. 2023 (doi:10.1038/s41467-023-39022-2), MIT Lincoln Laboratory and A-Alpha Bio; data file from the FLAb repository.